Compound activity (PubChem)
Hits are enriched below; roughly 16% of the tested compounds scored in any of these assays.
uPA surface inh – inhibitors of cell surface uPA generation | 0.31% of 330,000 active | cell surface uPA generation assay, qHTS | Potency, µM (top dose mostly 38.3 µM), for the others: at the top dose activity change, negative = inhibition, hits mostly inhibitors; active = well fitted inhibition curve with a large enough effect; inconclusive = small, poorly fitted or top-dose-only effect; inactive = no such curve, though single readings can be large or run the other way; tested in mouse RAW 264.7 cells; also: potency is read from the fitted curve at half-maximal effect; % is scaled to controls: 0 for no effect and ±100 for the full control effect; nearly all actives have a fitted effect of over 55% in size
DT40 TDP1 no CPT – qHTS for Inhibitors of human tyrosyl-DNA phosphodiesterase 1 (TDP1): qHTS in cells in absence of CPT. DT40 Tdp1-/- hTDP1 cells, no CPT, ATP luminescence, 48 h. Potency, µM (top dose mostly 46.2 µM), without a hit: top-dose activity change, negative = growth inhibition, actives largely listed as inhibitors. 15% of 420,000 active; also: potency is read from the fitted curve at half-maximal effect; % is scaled to controls: 0 for no effect and ±100 for the full control effect; nearly all actives have a fitted effect of over 55% in size
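Compound effects on proliferation are scored in DT40 Tdp1-/-;hTDP1 cells in the absence of CPT. ATP levels (CellTiter-Glo luminescence) are recorded after a ≥48 hr, 37 °C incubation.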
miR-21 reporter – raises the signal of a miR-21 reporter; HeLa miR-21 FLuc reporter, luciferase, 48 h; Potency, µM (top dose mostly 38.3 µM), for inactives: at the highest dose reporter change, positive = more light; AID 2288; 340,000 tested, under 10 active; active = well fitted rising curve with a large enough effect; inconclusive = small, poorly fitted or top-dose-only effect; inactive = no such curve, though single readings can be large or run the other way;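 note: % of control where 0% means no effect; miR-21 action dims this reporter so a rising signal means less miR-21 action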
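HeLa miR-21-FLuc reporter line, endogenous miR-21; 2000 cells/well in DMEM/10% FBS; compound titration up to ~40uM final, 48 h, 37 degree Celsius; luciferase detection reagent, 15 min lysis, CCD luminescence.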
DT40 TDP1 CPT – growth inhibition of DT40 Tdp1-/-;hTDP1 cells with camptothecin (screen for TDP1 inhibitors); chicken DT40 Tdp1-/-;hTDP1 cells + 20 nM CPT, ATP luminescence, 48 h; Potency, µM (top dose mostly 46.2 µM), for inactives: at the highest dose activity change, negative = growth inhibition, actives largely listed as inhibitors; 12% of 420,000 active; also: potency is read from the fitted curve at half-maximal effect; % is scaled to controls: 0 for no effect and ±100 for the full control effect; nearly all actives have a fitted effect of over 55% in size
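Chicken DT40 Tdp1-/- cells complemented with human TDP1, 400 cells/well, exposed to compounds plus 20 nM camptothecin for at least 48 h at 37 C; viability read as ATP content by CellTiter-Glo luminescence.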
TDP1 block – TDP1 (human) enzyme inhibition; Q9NUW8; recombinant TDP1, AlphaScreen DNA substrate cleavage; Potency, µM (series often up to 130 µM), for inactives: at the top dose activity change, negative = inhibition, most hits filed as inhibitors; 0.28% of 350,000 active; also: potency is read from the fitted curve at half-maximal effect; % is scaled to controls: 0 for no effect and ±100 for the full control effect; nearly all actives have a fitted effect of over 40% in size
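Recombinant human Tdp1 (E. coli-expressed, 1 nM final) preincubated with compounds 15 min at room temperature, then 5'-biotin/3'-phosphotyrosine-FITC DNA substrate (15 nM final) added for 5 min. AlphaScreen beads (10 ug/ml final) added 10 min; cleavage lowers signal.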
* marks the source's active call; other numbers are inactive results; ? = inconclusive; nt = no result; ! = not active in a repeat. Unless noted, calls follow the shape of the dose curve; as a rule, active = well fitted curve in the direction sought with a large enough effect; inconclusive = small, poorly fitted or top-dose-only effect, or another doubt; inactive = no such curve, though single readings can be large; an effect the other way counts as inactive or inconclusive.

Each structure is followed by: uPA surface inh, DT40 TDP1 no CPT, miR-21 reporter, DT40 TDP1 CPT, TDP1 block
- CSc1nnc2c3cc(C)ccc3n(Cc3ccccc3)c2n1
→ -2%, 12µM*, -2%, ?, -2%
- CCn1c2ccc(Cl)cc2c2nc3ccccc3nc21
→ nt, ?, -7%, -25%, nt
- CCn1c2ccc(OC)cc2c2nc3ccccc3nc21
→ -4%, 12µM*, -23%, ?, 0%
- Cc1nc(SCC(=O)NC(=O)NC2CCCCC2)nc(C)c1C
→ nt, ?, 1%, -14%, 3%
- Clc1ccc(-c2nnc(NCc3ccccc3)c3ccccc23)cc1
→ 15%, ?, -5%, ?, 1%
- Cc1ccnc(NC(=O)C2CC(=O)N(c3ccc4c(c3)OCCO4)C2)c1 (stereo not given)
→ ?, 10%, 1%, -13%, 3%
- COc1ccccc1-c1cc(C(=O)NN)[nH]n1
→ -3%, ?, 14%, ?, nt
- COc1cc(CC(NC(C)=O)C(=O)NC2CCN(C(=O)c3cc(OC)c(OC)c(OC)c3)CC2)cc(OC)c1 (stereo not given)
→ -2%, -19%, 2%, -15%, -3%
- Cc1ccc(C)c(-n2cc(-c3ccccc3)nc2SCC(=O)Nc2ccccc2)c1
→ nt, 18µM*, 17%, ?, 6%
- Cc1ccccc1NC(=O)CSc1nc(-c2ccccc2)cn1-c1ccccc1F
→ nt, 23µM*, ?, ?, 8%
- Cc1ccccc1-n1cc(-c2ccccc2)nc1SCC(=O)Nc1ccc(F)cc1
→ nt, ?, 12%, ?, 8%
- O=C(C[n+]1ccncc1Cl)c1ccc(F)cc1
→ nt, -25%, nt, 1%, nt
- CCOC(=O)c1c(C)[nH]c(C(=O)COC(=O)c2c(CC)noc2C)c1C
→ 0%, ?, nt, ?, -9%
- CSc1nccc(N2CCN(c3ccc(F)cc3)CC2)n1
→ -2%, ?, -1%, 13µM*, 4%
- Clc1ccc(N2CCN(c3ccnc(Cl)n3)CC2)cc1
→ 6%, ?, nt, -19%, nt
- CCOc1ccc(C(=S)N2CCN(C)CC2)cc1
→ 3%, 0%, -4%, 6%, 0%
- Cc1ccc(Nc2nc(-c3c(C)nc4ncccn34)cs2)cc1
→ -11%, 0.0065µM*, 16%, 0.018µM*, 2%
- Cc1nc2ncccn2c1-c1csc(Nc2ccc(O)cc2)n1
→ -14%, 5.2µM*, -8%, ?, 3%
- C=CCNc1nc(-c2c(C)nc3ncccn23)cs1
→ -2%, -23%, -1%, -17%, nt
- Cc1ccnc(Nc2nc(-c3c(C)nc4sccn34)cs2)c1
→ -7%, ?, 10%, ?, 10%
- COc1ccc(CN2C(=O)CCC2(C)C(=O)NC2CCCCC2)c(OC)c1 (stereo not given)
→ 7%, 12%, -1%, 0%, 2%
- Cc1cccc(NC(=O)CCCN2C(=O)c3ccccc3C2=O)n1
→ 1%, -12%, 1%, -9%, 4%
- O=C(COC(=O)/C=C/c1ccc(C(F)(F)F)cc1)Nc1ccc2[nH]c(=O)[nH]c2c1
→ -13%, -13%, nt, -26%, 3%
- O=C(NC1C2CCCC1CN(C1CC1)C2)c1ccc(Cl)cc1 (stereo not given)
→ 19%, 29µM*, -1%, ?, nt
- O=C(Nc1ccc(Nc2ccccc2)cc1)c1ccc(Cl)c([N+](=O)[O-])c1
→ ?, 10µM*, 20%, 13µM*, nt
- O=C(Nc1ccccc1-c1ccccc1)c1ccc(Cl)c([N+](=O)[O-])c1
→ -4%, ?, -3%, -12%, 4%
- Cc1ccccc1NC(=O)c1ccc(Nc2c([N+](=O)[O-])cc([N+](=O)[O-])c3ccccc23)cc1
→ -6%, 23µM*, ?, ?, 4%
- CC(=O)NS(=O)(=O)c1ccc(NC(=O)c2ccc(Cl)cc2[N+](=O)[O-])cc1
→ 1%, 6%, -1%, 6%, 3%
- C/C(=N\NC(=O)c1ccc([N+](=O)[O-])c(C)c1)c1ccccc1Cl
→ -3%, 21µM*, -56%, ?, 5%
- O=C(Nc1ccc(Nc2ccccc2)cc1)c1ccc(Cl)cc1[N+](=O)[O-]
→ 0%, 16µM*, nt, 5.8µM*, nt

Random excerpt: 4 entries already listed
Each structure is followed by: uPA surface inh, DT40 TDP1 no CPT, miR-21 reporter, DT40 TDP1 CPT, TDP1 block
- Clc1ccc(-c2nnc(NCc3ccccc3)c3ccccc23)cc1
→ 15%, ?, -5%, ?, 1%
- C/C(=N\NC(=O)c1ccc([N+](=O)[O-])c(C)c1)c1ccccc1Cl
→ -3%, 21µM*, -56%, ?, 5%
- Cc1cccc(NC(=O)CCCN2C(=O)c3ccccc3C2=O)n1
→ 1%, -12%, 1%, -9%, 4%
- Clc1ccc(N2CCN(c3ccnc(Cl)n3)CC2)cc1
→ 6%, ?, nt, -19%, nt

Continuation.
Each structure is followed by: uPA surface inh, DT40 TDP1 no CPT, miR-21 reporter, DT40 TDP1 CPT, TDP1 block
- Cc1cc(C(=O)Nc2ccc(Nc3ccccc3)cc2)ccc1[N+](=O)[O-]
→ -6%, 4.6µM*, 6%, 3.3µM*, nt
- O=C(Nc1ccc(Cc2ccncc2)cc1)c1ccc(Cl)c([N+](=O)[O-])c1
→ 2%, 18µM*, 20%, 16µM*, -1%
- CCN(C(=O)c1ccc(Cl)cc1[N+](=O)[O-])c1ccccc1C
→ -2%, 15µM*, 11%, 16µM*, -5%
- O=C(c1ccc(Cl)c([N+](=O)[O-])c1)N(c1ccccn1)c1ccccn1
→ -1%, ?, 5%, -21%, 3%
- CCN(C(=O)c1ccc(Cl)c([N+](=O)[O-])c1)c1ccccc1
→ -5%, 15µM*, 1%, ?, -2%
- Cc1ccc(NC(=O)c2cc(=O)[nH]c3ccc(S(=O)(=O)N4CCOCC4)cc23)nc1
→ 1%, 1%, nt, 23%, 1%
- Cc1cc(C)c[n+](-c2nc3ccccc3nc2[N-]S(=O)(=O)c2ccc(Br)s2)c1
→ 1%, ?, -3%, ?, 5%
- OC(Cc1ccncc1)(c1ccccc1)c1ccccc1
→ -3%, ?, nt, ?, 1%
- COc1cccc2ccc(CC(O)(c3ccccc3)c3ccccc3)nc12
→ nt, 26µM*, nt, ?, nt
- Cc1ccc2nc(CC(O)(c3ccccc3)c3ccccc3)ccc2c1
→ nt, 21µM*, nt, ?, nt
- CC1CCCCN1CCNC(=O)c1ccc2c(c1)N(Cc1ccccc1)C(=O)c1ccccc1S2(=O)=O (stereo not given)
→ -13%, ?, -5%, ?, 3%
- CN(C)/C=C/C(=O)c1ccc(Cl)cc1Cl
→ 7%, ?, 1%, 8%, -7%
- O=C(/C=C/Nc1ccccc1)c1ccc(Cl)cc1Cl
→ 10µM*, ?, -41%, -22%, 0%
- CCC(CC)C(=O)Nc1nnc(S(=O)(=O)N(CC)c2ccc(OC)cc2)s1
→ 10%, -18%, 1%, 2%, nt
- CC(C)c1ccc(NC(=O)CCS(=O)(=O)c2cccc3nonc23)cc1
→ -1%, 23µM*, -13%, 16µM*!, 9%
- O=C(CCl)N1N=C(c2cccs2)CC1c1ccco1 (stereo not given)
→ -10%, 2.9µM*, ?, 2.9µM*, 0%
- O=C(COc1ccc(Cl)cc1)N1N=C(c2cccs2)CC1c1ccco1 (stereo not given)
→ -3%, 16µM*, nt, 26µM*, nt
- O=C(CCl)N1N=C(c2ccco2)CC1c1ccco1 (stereo not given)
→ -15%, 13µM*, ?, 9.2µM*, -18%
- CC(=O)c1cccc(NC(=O)CN(C)S(=O)(=O)c2ccc3c(c2)CCC(=O)N3)c1
→ -8%, -12%, 1%, -11%, nt

Entries of single compounds from above.
`CCN(C(=O)c1ccc(Cl)cc1[N+](=O)[O-])c1ccccc1C` as listed: uPA surface inh = -2%; DT40 TDP1 no CPT = 15µM*; miR-21 reporter = 11%; DT40 TDP1 CPT = 16µM*; TDP1 block = -5%
`O=C(CCl)N1N=C(c2cccs2)CC1c1ccco1` (stereo not given) as listed: uPA surface inh = -10%; DT40 TDP1 no CPT = 2.9µM*; miR-21 reporter = ?; DT40 TDP1 CPT = 2.9µM*; TDP1 block = 0%
